{"sequences": {"note": "Sequences of proteins named here, by UniProt entry; tags and fusion partners are left off. A change or cut given only in a name is not applied to a line headed by its entry.", "UniProt P49146, whole entry": "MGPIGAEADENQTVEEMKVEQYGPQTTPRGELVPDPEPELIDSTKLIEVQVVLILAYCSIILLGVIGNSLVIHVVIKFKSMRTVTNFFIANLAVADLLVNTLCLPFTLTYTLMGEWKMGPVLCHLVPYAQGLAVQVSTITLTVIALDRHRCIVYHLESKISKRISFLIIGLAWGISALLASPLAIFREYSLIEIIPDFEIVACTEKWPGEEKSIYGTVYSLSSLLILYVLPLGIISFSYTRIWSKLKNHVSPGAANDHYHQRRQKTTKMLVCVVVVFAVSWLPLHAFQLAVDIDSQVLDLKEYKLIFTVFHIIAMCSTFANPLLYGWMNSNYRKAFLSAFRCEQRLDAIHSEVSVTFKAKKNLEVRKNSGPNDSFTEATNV", "UniProt Q9GZQ6": "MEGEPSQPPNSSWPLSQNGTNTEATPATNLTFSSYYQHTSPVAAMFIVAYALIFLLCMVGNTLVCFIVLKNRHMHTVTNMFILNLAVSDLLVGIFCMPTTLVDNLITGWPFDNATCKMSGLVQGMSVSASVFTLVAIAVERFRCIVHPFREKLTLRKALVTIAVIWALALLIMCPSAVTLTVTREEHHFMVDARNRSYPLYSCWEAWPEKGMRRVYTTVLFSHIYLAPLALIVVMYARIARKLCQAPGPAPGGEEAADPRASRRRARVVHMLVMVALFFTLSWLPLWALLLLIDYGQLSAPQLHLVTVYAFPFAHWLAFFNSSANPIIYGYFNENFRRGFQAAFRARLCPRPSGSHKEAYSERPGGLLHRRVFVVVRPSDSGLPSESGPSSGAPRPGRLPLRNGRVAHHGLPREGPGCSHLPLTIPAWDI", "UniProt P25929, whole entry": "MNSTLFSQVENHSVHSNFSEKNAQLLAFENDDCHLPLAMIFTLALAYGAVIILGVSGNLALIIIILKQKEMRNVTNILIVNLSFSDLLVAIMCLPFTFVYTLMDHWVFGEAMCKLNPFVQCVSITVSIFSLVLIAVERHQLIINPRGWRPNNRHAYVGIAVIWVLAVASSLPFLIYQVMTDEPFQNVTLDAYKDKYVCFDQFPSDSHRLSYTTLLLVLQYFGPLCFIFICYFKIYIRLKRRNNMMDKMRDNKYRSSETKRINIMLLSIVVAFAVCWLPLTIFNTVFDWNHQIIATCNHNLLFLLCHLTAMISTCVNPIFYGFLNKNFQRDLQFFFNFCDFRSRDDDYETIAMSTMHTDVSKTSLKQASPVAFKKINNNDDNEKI"}, "source": "paper PMC6751662", "about": "“Pharmacological and functional similarities of the human neuropeptide Y system in C. elegans challenges phylogenetic views on the FLP/NPR system” (Cell Communication and Signaling : CCS, 2019)", "key": {"NPR-4b": {"molecular_target": "T1, NPR-4b (Caenorhabditis elegans, UniProt A0A078BTK0)", "T1 sequence (A0A078BTK0 1-376)": "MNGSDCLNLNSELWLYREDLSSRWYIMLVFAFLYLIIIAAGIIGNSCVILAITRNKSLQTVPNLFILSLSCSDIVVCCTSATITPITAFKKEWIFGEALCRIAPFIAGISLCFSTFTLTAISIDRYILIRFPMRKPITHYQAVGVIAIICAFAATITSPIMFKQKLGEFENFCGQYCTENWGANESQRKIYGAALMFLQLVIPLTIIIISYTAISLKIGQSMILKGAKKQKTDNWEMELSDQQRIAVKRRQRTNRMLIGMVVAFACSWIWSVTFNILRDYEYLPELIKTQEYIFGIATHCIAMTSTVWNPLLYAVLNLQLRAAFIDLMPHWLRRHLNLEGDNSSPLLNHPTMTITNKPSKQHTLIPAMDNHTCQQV", "assay": "cAMP reporter gene assay, Gi/o (inhibition of forskolin-induced cAMP), NPR-4b", "format": "cell-based, C. elegans", "details": "1 µM forskolin set to 1.00, transiently transfected HEK293 cells, mean of at least three independent experiments"}, "Y2R": {"molecular_target": "T2, Y2R (Homo sapiens, UniProt P49146)", "T2 construct": "expressed in transfected cells; host or cells: HEK293, transient", "assay": "IP accumulation assay, chimeric GαΔ6qi4myr, Y2R", "format": "cell-based", "details": "chimeric GαΔ6qi4myr co-transfected, transiently transfected HEK293 cells, mean of at least three independent experiments"}, "NPR-5b": {"molecular_target": "T3, NPR-5b (Caenorhabditis elegans, UniProt Q6F3C9)", "T3 sequence (Q6F3C9 1-433)": "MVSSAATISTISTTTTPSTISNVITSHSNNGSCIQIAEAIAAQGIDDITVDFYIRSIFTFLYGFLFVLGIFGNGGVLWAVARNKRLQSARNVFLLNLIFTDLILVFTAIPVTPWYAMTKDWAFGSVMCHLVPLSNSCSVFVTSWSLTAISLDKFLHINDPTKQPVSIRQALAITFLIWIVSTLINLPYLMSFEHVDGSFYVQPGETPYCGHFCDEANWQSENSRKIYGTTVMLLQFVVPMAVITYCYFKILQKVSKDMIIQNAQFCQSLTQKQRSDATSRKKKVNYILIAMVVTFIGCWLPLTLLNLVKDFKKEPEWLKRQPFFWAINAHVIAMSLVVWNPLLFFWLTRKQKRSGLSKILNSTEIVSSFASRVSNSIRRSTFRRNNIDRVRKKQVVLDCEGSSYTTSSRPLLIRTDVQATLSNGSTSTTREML", "assay": "cAMP reporter gene assay, Gi/o (with forskolin), NPR-5b", "format": "cell-based, C. elegans", "details": "1 µM forskolin set to 1.00, values > 1 = cAMP stimulation, transiently transfected HEK293 cells, mean of at least three independent experiments"}, "NPFF1R": {"molecular_target": "T4, NPFF1R (Homo sapiens, UniProt Q9GZQ6)", "T4 construct": "expressed in transfected cells; host or cells: HEK293, transient", "assay": "IP accumulation assay, chimeric GαΔ6qi4myr, NPFF1R", "format": "cell-based", "details": "chimeric GαΔ6qi4myr co-transfected, transiently transfected HEK293 cells, mean of at least three independent experiments"}, "Y1R": {"molecular_target": "T5, Y1R (Homo sapiens, UniProt P25929)", "T5 construct": "expressed in transfected cells; host or cells: HEK293, transient", "assay": "IP accumulation assay, chimeric GαΔ6qi4myr, Y1R", "format": "cell-based", "details": "chimeric GαΔ6qi4myr co-transfected, transiently transfected HEK293 cells, mean of at least three independent experiments"}, "QRFPR": {"molecular_target": "T6, QRFPR (Homo sapiens, UniProt Q96P65)", "T6 construct": "expressed in transfected cells; host or cells: HEK293, transient", "T6 sequence (Q96P65 1-431)": "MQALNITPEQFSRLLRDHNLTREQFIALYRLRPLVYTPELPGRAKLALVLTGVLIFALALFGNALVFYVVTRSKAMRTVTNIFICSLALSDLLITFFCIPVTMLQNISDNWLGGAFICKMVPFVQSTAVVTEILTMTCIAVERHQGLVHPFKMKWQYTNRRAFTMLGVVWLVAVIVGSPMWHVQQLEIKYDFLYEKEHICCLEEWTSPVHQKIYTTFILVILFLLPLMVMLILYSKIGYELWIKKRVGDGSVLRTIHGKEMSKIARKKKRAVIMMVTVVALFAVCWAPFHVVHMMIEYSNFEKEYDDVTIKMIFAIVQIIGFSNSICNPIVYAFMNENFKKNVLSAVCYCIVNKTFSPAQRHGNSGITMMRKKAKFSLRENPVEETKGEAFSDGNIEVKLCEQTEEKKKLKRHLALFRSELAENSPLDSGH", "assay": "IP accumulation assay, endogenous Gαq coupling, QRFPR", "format": "cell-based", "details": "transiently transfected HEK293 cells, mean of at least three independent experiments"}, "NPR-11": {"molecular_target": "T7, NPR-11 (Caenorhabditis elegans, UniProt Q18179)", "T7 construct": "expressed in transfected cells; host or cells: HEK293, transient", "T7 sequence (Q18179 1-402)": "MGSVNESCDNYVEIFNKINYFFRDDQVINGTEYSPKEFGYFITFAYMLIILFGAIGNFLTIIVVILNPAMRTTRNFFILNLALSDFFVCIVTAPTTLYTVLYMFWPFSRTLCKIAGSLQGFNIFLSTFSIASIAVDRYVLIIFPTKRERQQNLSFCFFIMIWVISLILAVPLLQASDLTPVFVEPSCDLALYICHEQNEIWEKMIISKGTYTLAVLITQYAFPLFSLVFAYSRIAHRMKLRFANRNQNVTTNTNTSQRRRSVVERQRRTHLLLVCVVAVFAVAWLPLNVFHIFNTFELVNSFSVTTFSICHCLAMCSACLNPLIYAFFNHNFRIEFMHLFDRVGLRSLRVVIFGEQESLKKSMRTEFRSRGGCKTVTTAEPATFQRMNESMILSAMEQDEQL", "assay": "cAMP reporter gene assay, Gi/o (inhibition of forskolin-induced cAMP), NPR-11", "format": "cell-based, C. elegans", "details": "1 µM forskolin set to 1.00, transiently transfected HEK293 cells, mean of at least three independent experiments"}}, "data": [{"substance": "FLFQPQRF-NH2 [NPFF, human neuropeptide FF, reference compound]", "values": [{"measurement": "cAMP, x-fold of forskolin (mean), NPR-4b", "setting": "NPR-4b; 0.1 µM peptide", "value": "1.00 x-fold of forskolin"}, {"measurement": "cAMP, x-fold of forskolin (mean), NPR-4b", "setting": "NPR-4b; 10 µM peptide", "value": "0.44 x-fold of forskolin"}, {"measurement": "IP accumulation, x-fold of basal (mean), Y2R", "setting": "Y2R; 0.1 µM peptide", "value": "0.76 x-fold of basal"}, {"measurement": "IP accumulation, x-fold of basal (mean), Y2R", "setting": "Y2R; 10 µM peptide", "value": "0.98 x-fold of basal"}, {"measurement": "cAMP, x-fold of forskolin (mean), NPR-5b", "setting": "NPR-5b; 0.1 µM peptide", "value": "1.04 x-fold of forskolin"}, {"measurement": "cAMP, x-fold of forskolin (mean), NPR-5b", "setting": "NPR-5b; 10 µM peptide", "value": "1.65 x-fold of forskolin"}, {"measurement": "IP accumulation, x-fold of basal (mean), NPFF1R", "setting": "NPFF1R; 0.1 µM peptide", "value": "1.76 x-fold of basal"}, {"measurement": "IP accumulation, x-fold of basal (mean), NPFF1R", "setting": "NPFF1R; 10 µM peptide", "value": "2.44 x-fold of basal"}, {"measurement": "IP accumulation, x-fold of basal (mean), Y1R", "setting": "Y1R; 0.1 µM peptide", "value": "0.90 x-fold of basal"}, {"measurement": "IP accumulation, x-fold of basal (mean), Y1R", "setting": "Y1R; 10 µM peptide", "value": "0.99 x-fold of basal"}, {"measurement": "IP accumulation, x-fold of basal (mean), QRFPR#", "setting": "QRFPR; 0.1 µM peptide", "value": "0.58 x-fold of basal"}, {"measurement": "IP accumulation, x-fold of basal (mean), QRFPR#", "setting": "QRFPR; 10 µM peptide", "value": "0.67 x-fold of basal"}, {"measurement": "cAMP, x-fold of forskolin (mean), NPR-11", "setting": "NPR-11; 0.1 µM peptide", "value": "0.95 x-fold of forskolin"}, {"measurement": "cAMP, x-fold of forskolin (mean), NPR-11", "setting": "NPR-11; 10 µM peptide", "value": "0.78 x-fold of forskolin"}]}]}
